Source: US20250304643A1 (BAINAN BIOTECH, published 2025)

Assays:
[1] = molecular target: T1, human glucose-dependent insulinotropic polypeptide receptor (human, UniProt P48546 22-466); experiment: cell-based or functional assay
T1 sequence (looked up): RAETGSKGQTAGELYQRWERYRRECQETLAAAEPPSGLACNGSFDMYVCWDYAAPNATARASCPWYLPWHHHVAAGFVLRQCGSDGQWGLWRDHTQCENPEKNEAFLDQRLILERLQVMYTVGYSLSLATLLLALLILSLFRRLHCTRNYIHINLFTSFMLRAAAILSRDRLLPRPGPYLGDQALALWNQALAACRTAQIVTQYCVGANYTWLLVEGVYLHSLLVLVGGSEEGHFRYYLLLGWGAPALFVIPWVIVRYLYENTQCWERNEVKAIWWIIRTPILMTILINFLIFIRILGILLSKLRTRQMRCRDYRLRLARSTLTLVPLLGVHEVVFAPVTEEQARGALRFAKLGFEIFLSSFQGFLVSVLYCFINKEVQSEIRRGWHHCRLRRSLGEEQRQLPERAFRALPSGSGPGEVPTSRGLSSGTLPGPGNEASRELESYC

[2] = molecular target: T2, human glucagon-like peptide-2 receptor (human, UniProt O95838 1-553); experiment: cell-based or functional assay
T2 sequence (looked up): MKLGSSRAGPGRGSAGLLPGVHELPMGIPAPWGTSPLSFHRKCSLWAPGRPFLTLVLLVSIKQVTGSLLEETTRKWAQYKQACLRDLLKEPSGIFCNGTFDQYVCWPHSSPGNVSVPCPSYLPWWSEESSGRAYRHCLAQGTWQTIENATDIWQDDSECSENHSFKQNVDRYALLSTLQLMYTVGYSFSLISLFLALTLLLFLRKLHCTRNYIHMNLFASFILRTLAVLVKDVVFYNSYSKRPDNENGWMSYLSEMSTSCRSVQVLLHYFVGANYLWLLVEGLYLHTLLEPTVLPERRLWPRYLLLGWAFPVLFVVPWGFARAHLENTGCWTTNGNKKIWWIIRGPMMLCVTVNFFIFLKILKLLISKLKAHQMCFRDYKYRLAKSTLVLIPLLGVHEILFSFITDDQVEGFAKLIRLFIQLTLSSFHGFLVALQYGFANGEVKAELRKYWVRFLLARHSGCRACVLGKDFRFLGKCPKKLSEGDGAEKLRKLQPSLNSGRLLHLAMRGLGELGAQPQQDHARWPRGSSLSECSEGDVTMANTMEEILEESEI

Row | Binder | EC50 (nM) GIPR [1] | EC50 (nM) GLP-2R [2] | logEC50 GLP-2R [2]
1 | HADGTFISDYSTILDNLAAKDFINWLIQTKITKNDWKHNITQ (C10 fatty acid at the N-terminus) [Compound no. 3] | 0.584 nM | – | –
2 | HADGTFISDYSTILDNLAARDFINWLIQTKITD (C16 fatty acid at the N-terminus) [Compound no. 4] | – | 27.1 nM | 7.6
3 | HADGTFISDYSTILELLAARDFINWLIQTKITKNDWKHNITQ (C16 fatty acid at the N-terminus; C-terminal COOH) [Compound no. 15] | 2.93 nM | 50.1 nM | 7.3
4 | HXDGTFISDYSTXLDNLAARDFINWLIQTKITK (C10-diacid at the N-terminus; Aib at 2 and 13; C-terminal -OH) [Compound no. 18] | 4.22 nM | – | –
5 | HXDGTFISDYSTXLDNLAARDFINWLIQTKITK (C10 fatty acid at the N-terminus; Aib at 2 and 13; C-terminal -OH) [Compound no. 44] | 1.07 nM | – | –
6 | HADGTFISDYSTILDNLAAKDFINWLIQTKITK (C16 fatty acid at the N-terminus) [Compound no. 45] | 2.71 nM | – | –
7 | HADGTFISDYSTILDNLAARDFINWLLAQKITK (C16 fatty acid at the N-terminus) [Compound no. 46] | 1.58 nM | 23.3 nM | 7.6
8 | HADGTFISDYSTILDNLAARDFINWLIQTKITD (C16 fatty acid at the N-terminus) [Compound no. 1] | – | 27.1 nM | 7.6
9 | HADGTFISDYSTILDNLAARDFINWLIQTKIT (C16 fatty acid at the N-terminus) [Compound no. 2] | 0.464 nM | 50.1 nM | 7.3
